The numbers were not newly measured in patent US11325944B2 (priority 2017, dated 2022), which cites them from elsewhere.

Sequences of proteins named here, by UniProt entry; tags and fusion partners are left off.
UniProt P33535, whole entry: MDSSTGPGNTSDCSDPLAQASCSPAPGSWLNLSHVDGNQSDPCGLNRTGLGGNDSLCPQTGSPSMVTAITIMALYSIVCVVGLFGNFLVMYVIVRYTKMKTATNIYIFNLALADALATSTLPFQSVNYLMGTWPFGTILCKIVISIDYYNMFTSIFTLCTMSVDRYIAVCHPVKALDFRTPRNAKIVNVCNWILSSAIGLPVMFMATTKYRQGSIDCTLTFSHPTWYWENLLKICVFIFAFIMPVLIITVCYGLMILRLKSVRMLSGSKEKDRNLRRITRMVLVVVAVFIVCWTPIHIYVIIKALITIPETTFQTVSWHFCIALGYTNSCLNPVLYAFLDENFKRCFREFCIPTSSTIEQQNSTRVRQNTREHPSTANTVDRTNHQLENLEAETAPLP

pKd: −log10 of the molar value.

A word on the pKd: it is −log10 of the Kd, conventionally taken in molar units.

The target of this data set is T1, MOR (Rattus norvegicus, UniProt P33535).
T1 construct: expressed in transfected cells; isolated membranes
Conditions: μ opioid receptor, CHO cell membranes; read-out: Kd of radioligand.

For “[D-Ala^2, NMePhe^4, glyol]enkephalin [[^3H]-DAMGO]”, the pKd was 9.31.
